# In patent US20220002432A1 (VIRTUOSO BINCO, published 2022):
# Protein sequences, listed by entry. Tags and fused reporters are not part of them. Chains listed by the source or under a name are the forms on record and can include a tag or linker.
# UniProt Q5VAN0, other isoform, or with tags, fused parts or gaps: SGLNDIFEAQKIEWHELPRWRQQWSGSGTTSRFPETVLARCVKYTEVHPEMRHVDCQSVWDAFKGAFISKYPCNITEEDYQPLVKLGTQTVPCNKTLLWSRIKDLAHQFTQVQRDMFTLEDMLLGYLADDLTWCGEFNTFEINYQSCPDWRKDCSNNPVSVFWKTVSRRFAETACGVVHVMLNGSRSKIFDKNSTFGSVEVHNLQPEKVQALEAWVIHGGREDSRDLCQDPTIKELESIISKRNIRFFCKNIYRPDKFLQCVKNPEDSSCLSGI
# What was measured:
# recombinant human CD38 = recombinant human CD38 (human, UniProt P28907); assay: SPR (Biacore 8K), antibody captured, antigen injected;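 further: antibodies held on a CM5 chip by anti-human IgG Fc, antigen in 3-fold dilution series, 1 min association, 10 min dissociation at 25 °C, 1:1 Langmuir kinetic fit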
# cynomolgus CD38 ECD = target: T1, cynomolgus CD38 ECD (cynomolgus, UniProt Q5VAN0, biotinylated on the AviTag during preparation); assay: as above
# T1 construct: also called Cyno-CD38; Avi-Cyno CD38 ECD
binder,measurement,setting,value
"Anti-CD38 G1F4 (antibody, human IgG1, kappa, V domains shown, Human IgG1 with the common anti-HER2 light chain; From the phage/yeast libraries; also called G1F4_VH; G1F4_VL) VH: [about 100 residues left out]RGTYGYSFPTGFDYWGQGTLVTVSS VL: DIQMTQSPSSLSASVGDRVTITCRASQDVNTAVAWYQQKPGKAPKLLIYSASFLYSGVPSRFSGSRSGTDFTLTISSLQPEDFATYYCQQHYTTPPTFGQGTKVEIKR",Kd,recombinant human CD38,35.5 nM
same,koff,recombinant human CD38,0.0183 s⁻¹
same,kon,recombinant human CD38,515000 M⁻¹ s⁻¹
same,Kd,cynomolgus CD38 ECD,26.5 nM
same,koff,cynomolgus CD38 ECD,0.0549 s⁻¹
same,kon,cynomolgus CD38 ECD,2.07e+06 M⁻¹ s⁻¹
